# Laboratory results published in PubChem BioAssay AID795 (NMMLSC, 2007).
# The list shows a part of the results, in another mix than the full data. Calls of active or inactive are those of the source.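 How the source made its calls: active means side scatter shift above 30%; inactive means the rest.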
# Assay: activators of LNCaP prostate cell differentiation, primary screen, flow cytometry side scatter (AID 795);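 further: androgen-responsive LNCaP prostate cancer cells in charcoal-stripped serum medium; percent of cells past a gate set so DMSO wells show 10% shift; higher shift means more granular cells and more differentiation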
# Details: 4 d, at 10 µM, active compounds read high
row,SMILES,side scatter shift
1,O=C(COc1ccccc1)OC1CN2CCC1CC2 (configuration not stated),inactive: 10%
2,COP1(=S)c2c(C)nn(CCC#N)c2N=C(c2ccc(F)cc2)N1C (configuration not stated),inactive: 12%
3,Cc1nn(-c2ccccc2)c2c1P(=O)(N1CCOCC1)N(C)C(c1ccccc1)=N2 (configuration not stated),inactive: 7%
4,Clc1n[nH]nc1-c1nn[nH][15n]1,inactive: 6%
5,CCOP1(=S)c2c(C)nn(CCC#N)c2N=C(c2ccccc2F)N1C (configuration not stated),inactive: 13%
6,O=P(Nc1nccs1)(c1ccccc1)c1ccccc1,inactive: 17%
7,CCc1nc2c(n1)c1c(non1O)c1c2no[n+]1[O-],inactive: 5%
